Results published in patent publication US20120040914A1, “ENHANCING EFFECTIVENESS OF GLIAL CANCER THERAPIES” (priority 2010, published 2012).

System: A172 human glioblastoma cell line
Settings: 1 uM or 5 uM TB added to 5 mM TMZ, A172 cells

Substance: TBSA: BSA-conjugated testosterone, membrane impermeable androgen, ligand/activator of the membrane androgen receptor (mAR)
- effect on TMZ cytotoxicity: dramatically enhanced the degree of cytotoxicity
